{"source": "ChEMBL document CHEMBL1139534", "about": "“Inhibition of herpes simplex virus thymidine kinases by 2-phenylamino-6-oxopurines and related compounds: structure-activity relationships and antiherpetic activity in vivo” (J Med Chem, 2005)", "target": "T1, Thymidine kinase (Human herpesvirus 2, UniProt Q6L709)", "T1 sequence (Q6L709 whole entry)": "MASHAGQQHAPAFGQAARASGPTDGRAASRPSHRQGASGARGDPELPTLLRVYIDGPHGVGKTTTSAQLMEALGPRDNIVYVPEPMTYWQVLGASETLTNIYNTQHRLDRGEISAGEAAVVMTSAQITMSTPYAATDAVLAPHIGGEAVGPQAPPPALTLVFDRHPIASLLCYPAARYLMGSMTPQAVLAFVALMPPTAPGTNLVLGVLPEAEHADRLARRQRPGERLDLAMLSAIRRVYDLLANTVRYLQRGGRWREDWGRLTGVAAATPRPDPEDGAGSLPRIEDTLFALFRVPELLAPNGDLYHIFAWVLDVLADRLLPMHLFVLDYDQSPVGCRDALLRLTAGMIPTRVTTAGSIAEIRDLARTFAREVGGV", "test": "Inhibitory concentration against herpes simplex virus type 2 thymidine kinase", "set-up": "species or system Human alphaherpesvirus 2", "how_it_was_run": "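Recombinant His-tagged HSV-2 TK expressed in E. coli, Ni-NTA purified. Products captured on DEAE paper and counted by scintillation. Inhibitor diluted from DMSO stocks, at least five concentrations in duplicate; IC50 is the concentration halving activity.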"}
{"smiles": "O=c1[nH]c(Nc2ccccc2)nc2c1ncn2CCO", "values": [{"measurement": "IC50", "result": 2200, "unit": "nM"}]}
